Laboratory results from paper PMC6272913, “Synthesis of Bioactive 2-(Arylamino)thiazolo[5,4-f]-quinazolin-9-ones via the Hügershoff Reaction or Cu- Catalyzed Intramolecular C-S Bond Formation” (Molecules, 2016).

Key:
[1] = biological target: T1, CDK5/p25 (Homo sapiens, UniProt Q00535); assay: CDK5/p25 in vitro kinase assay (histone H1, [γ-33P] ATP); type: biochemical
T1 construct: made in house

[2] = biological target: DYRK1A (Rattus norvegicus, UniProt Q63470); assay: DYRK1A in vitro kinase assay (Woodtide); type: biochemical; details: 15 μM ATP, 30 min at 30 °C, triplicate; >10 = less than 50% inhibition at 10 µM

Which IC50 [1] does the source give for `COc1ccc2c(c1)[nH]c1c(C)nccc12` [Harmine, reference compound] here?
The IC50 was > 10000 nM.

And the IC50 [2]?
Its IC50 is 29 nM.
